Experiments:
[1] = target: catalytic domain of TDP1 (residues S148-S608) (Homo sapiens, UniProt Q9NUW8); settings: TDP1 crystals soaked with compound for 5 days
TDP1(148-608) = TDP1(148-608) (Homo sapiens, UniProt Q9NUW8); experiment: intact mass LC-MS analysis of covalent modification; assay type: binding; settings: 50 μM compound, overnight 25 °C, 1:65 enzyme/compound
Description: The samples were diluted with water to 100 μL and analyzed by liquid chromatography coupled online with mass spectrometry (LC-MS)[67]. Separation was performed on a Vanquish Flex chromatographic system (Thermo) using a MabPac reversed-phase column (4 μm, 1500 Å, 3 ×50 mm, Thermo) maintained at 50 °C. The labeled proteins were resolved at 0.5 mL/min over a 15 min gradient of buffer B (47.5% acetonitrile, 47.5% isopropanol, 5% water, 0.2% formic acid (FA)) from 2 to 100% followed by re-equilibration at 2% buffer B (total run time 20 min) against buffer A (5% acetonitrile, 0.2% FA in water). The eluates from the column were introduced to an Exactive Plus EMR mass spectrometer (Thermo) through a heated electrospray ionization (HESI) source. Intact mass spectra were acquired over 500-2000 m/z window at 35,000 FT resolution (at 200 m/z), averaging 10 microscans, with an AGC target of 3 ×10^6, max injection time of 200 ms, 80% S-lens RF level, 20 V source-induced dissociation, and capillary temperature set at 275 °C. The resulting spectra were manually averaged followed by deconvolution using the ReSpect algorithm in BioPharma Finder 2.0 (Thermo). The default deconvolution parameters used were 20 ppm deconvolution mass tolerance, 6-10 minimum adjacent charges (low and high model mass), 0% relative abundance threshold, 2:2 left/right peak shape, peak detection minimum significance measure of 1 standard deviation, 95% peak detection quality measure, peak model width factor of 1, 0.01 intensity threshold scale, and the noise compensation set to true.

Protein sequences, listed by entry. Tags and fused reporters are not part of them. Residues count along the entry.
UniProt Q9NUW8, 148-608: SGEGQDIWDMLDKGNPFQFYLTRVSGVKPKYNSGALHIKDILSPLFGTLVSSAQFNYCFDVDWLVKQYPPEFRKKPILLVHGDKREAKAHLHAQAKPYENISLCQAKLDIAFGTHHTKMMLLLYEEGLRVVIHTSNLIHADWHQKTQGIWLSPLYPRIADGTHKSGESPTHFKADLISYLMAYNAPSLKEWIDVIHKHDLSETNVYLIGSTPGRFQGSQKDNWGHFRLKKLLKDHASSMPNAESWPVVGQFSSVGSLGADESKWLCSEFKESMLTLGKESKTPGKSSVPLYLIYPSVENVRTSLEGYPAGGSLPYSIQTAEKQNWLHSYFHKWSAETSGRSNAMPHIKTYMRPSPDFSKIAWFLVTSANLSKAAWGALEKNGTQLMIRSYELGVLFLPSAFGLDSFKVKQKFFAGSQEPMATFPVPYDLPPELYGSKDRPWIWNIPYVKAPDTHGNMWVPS
UniProt Q9NUW8, whole entry: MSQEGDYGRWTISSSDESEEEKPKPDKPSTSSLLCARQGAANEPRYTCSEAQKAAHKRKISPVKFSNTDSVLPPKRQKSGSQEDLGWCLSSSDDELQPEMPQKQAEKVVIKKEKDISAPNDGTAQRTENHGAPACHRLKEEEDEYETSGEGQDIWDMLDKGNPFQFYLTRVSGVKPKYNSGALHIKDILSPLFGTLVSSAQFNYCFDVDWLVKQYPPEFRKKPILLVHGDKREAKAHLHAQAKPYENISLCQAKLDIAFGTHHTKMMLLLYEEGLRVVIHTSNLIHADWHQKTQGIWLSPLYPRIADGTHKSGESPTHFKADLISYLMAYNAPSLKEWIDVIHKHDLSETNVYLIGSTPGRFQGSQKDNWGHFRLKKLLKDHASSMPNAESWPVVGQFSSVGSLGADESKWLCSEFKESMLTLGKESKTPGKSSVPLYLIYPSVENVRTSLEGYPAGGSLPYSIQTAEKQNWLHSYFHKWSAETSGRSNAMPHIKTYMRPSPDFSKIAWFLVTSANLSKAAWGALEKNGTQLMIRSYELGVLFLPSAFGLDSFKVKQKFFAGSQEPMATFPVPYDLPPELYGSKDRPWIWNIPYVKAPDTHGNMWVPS
UniProt Q9NUW8, whole entry Y204F: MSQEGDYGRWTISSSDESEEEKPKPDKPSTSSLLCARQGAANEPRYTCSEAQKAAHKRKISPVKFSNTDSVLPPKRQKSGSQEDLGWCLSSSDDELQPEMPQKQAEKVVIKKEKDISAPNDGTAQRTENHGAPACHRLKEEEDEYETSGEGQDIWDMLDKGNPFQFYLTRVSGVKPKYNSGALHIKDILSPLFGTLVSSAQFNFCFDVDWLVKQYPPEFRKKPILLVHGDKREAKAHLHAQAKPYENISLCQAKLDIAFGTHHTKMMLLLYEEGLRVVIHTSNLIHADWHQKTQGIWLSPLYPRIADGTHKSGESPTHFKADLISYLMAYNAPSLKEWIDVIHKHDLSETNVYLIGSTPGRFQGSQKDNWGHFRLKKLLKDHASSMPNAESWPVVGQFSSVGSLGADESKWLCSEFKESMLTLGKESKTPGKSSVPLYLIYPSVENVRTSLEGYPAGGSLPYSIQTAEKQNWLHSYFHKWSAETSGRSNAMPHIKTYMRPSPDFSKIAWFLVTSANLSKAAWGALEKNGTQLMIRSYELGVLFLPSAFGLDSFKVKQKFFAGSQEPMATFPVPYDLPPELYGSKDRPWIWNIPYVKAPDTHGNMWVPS

[2] = target: recombinant full-length TDP1 (Homo sapiens, UniProt Q9NUW8); experiment: gel-based TDP1 fluorescence assay in vitro (wild-type TDP1); settings: for fold increase in inhibitory potency compared with quinolone 1a: 5 min pre-incubation, vs 1a IC50 7.2 mM
TDP1^Y204F = target: T1, TDP1^Y204F (Homo sapiens, UniProt Q9NUW8, Y204F); experiment: gel-based TDP1 fluorescence assay in vitro (mutant TDP1 Y204F); assay type: biochemical; settings: 5 min pre-incubation
T1 construct: was incubated for 15 min. with recombinant full-length TDP1 or TDP1^Y204F (40 pM)

Row | SMILES | covalent bond to Y204 in crystal structure [1] | mass shift of single covalent modification of TDP1(148-608) (loss of fluorine) (TDP1(148-608)) | fold increase in inhibitory potency compared with quinolone 1a ([2]; WT TDP1) [fold] | fold reduced inhibitory potency with mutant TDP1^Y204F vs WT (TDP1^Y204F) [fold] | fold increase in inhibitory potency relative to parent compound 3c [2] [fold] | fold enhancement of IC50 by extending pre-incubation time from 5 min to 3 h ([2]; WT TDP1) [fold]
1 | O=C(O)c1c[nH]c2c(S(=O)(=O)F)cccc2c1=O [Compound 2e] | covalent binding | +251.32 Da | – | – | – | –
2 | O=C(O)c1c[nH]c2c(NCCS(=O)(=O)F)cccc2c1=O [Compound 2f] | does not form a covalent bond to Y204 | – | 13 | – | – | –
3 | O=C(O)c1c[nH]c2c(-c3ccccc3NCCS(=O)(=O)F)cccc2c1=O [Compound 3b] | covalent attachment | +370.08 Da | – | – | – | –
4 | O=C(O)c1c[nH]c2c(-c3ccccc3OS(=O)(=O)F)cccc2c1=O [Compound 3c] | formation of the covalent bond | +343.65 Da | – | – | – | –
5 | O=C(O)c1c[nH]c2c(-c3ccc(OS(=O)(=O)F)cc3)cccc2c1=O [Compound 3e] | has not formed any covalent bond | – | – | – | – | –
6 | O=C(NCc1ccccc1)c1ccc(-c2cccc3c(=O)c(C(=O)O)c[nH]c23)c(OS(=O)(=O)F)c1 [Compound 3f, 8-(4-(benzylcarbamoyl)-2-((fluorosulfonyl)oxy)phenyl)-4-oxo-1,4-dihydroquinoline-3-carboxylic acid] | covalent bond with the side chain of Y204 | +476.57 Da | 38 | 32 | 5 to 10 | 1.9

From paper PMC11405833, “Targeted sulfur(VI) fluoride exchange-mediated covalent modification of a tyrosine residue in the catalytic pocket of tyrosyl-DNA phosphodiesterase 1” (Communications Chemistry, 2024)
